The values that follow are results of earlier work, collected in patent US9459187B2, “Blood collection device containing lysophospholipase inhibitor” (Becton, Dickinson and Company, priority 2011, dated 2016).

Sequences of proteins named here, by UniProt entry; tags and fusion partners are left off. A change or cut given only in a name is not applied to a line headed by its entry.
UniProt P22303: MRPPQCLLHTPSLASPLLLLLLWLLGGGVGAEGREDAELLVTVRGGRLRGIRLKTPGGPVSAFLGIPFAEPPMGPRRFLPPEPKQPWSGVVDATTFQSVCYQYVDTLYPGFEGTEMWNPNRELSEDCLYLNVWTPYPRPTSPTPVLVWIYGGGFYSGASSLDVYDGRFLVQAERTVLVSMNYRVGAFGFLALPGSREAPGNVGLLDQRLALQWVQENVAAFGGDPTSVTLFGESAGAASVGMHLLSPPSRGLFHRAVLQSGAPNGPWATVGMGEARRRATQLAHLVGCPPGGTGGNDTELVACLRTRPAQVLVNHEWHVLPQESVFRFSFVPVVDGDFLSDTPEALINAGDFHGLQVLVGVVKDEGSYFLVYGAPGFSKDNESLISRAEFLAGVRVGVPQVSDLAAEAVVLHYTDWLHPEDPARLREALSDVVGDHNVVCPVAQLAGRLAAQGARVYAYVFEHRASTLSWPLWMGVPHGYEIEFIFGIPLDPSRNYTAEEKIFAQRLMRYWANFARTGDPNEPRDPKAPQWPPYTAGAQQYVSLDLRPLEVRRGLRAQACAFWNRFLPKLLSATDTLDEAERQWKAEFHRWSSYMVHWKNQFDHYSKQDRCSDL

The data set concerns the target acetylcholinesterase (AChE) (Homo sapiens, UniProt P22303). Conditions: read-out: Ki for AChE; reported literature values.

Usually Ki stands for the dissociation constant of the complex between target and ligand, obtained from inhibition or displacement. On to “(9E)-N1-(7-(1,2,3,4-Tetrahydroacridin-9-ylamino)heptyl)-9-ethylidene-4,4,7-trimethylbicyclo[3.3.1]non-6-ene-1,3-diamine”, for which the inhibition constant Ki was 16.5 nM.
In the case of “(9E)-N1-(7-(1,2,3,4-Tetrahydroacridin-9-ylamino)heptyl)-9-ethylidene-7-methylbicyclo[3.3.1]non-6-ene-1,3-diamine”, the Ki is 15.7 nM.
